The text below walks through data of publication PMC3985653, “A bacteriophage transcription regulator inhibits bacterial transcription initiation by σ-factor displacement” (2014).

Series [1] has as its target internal_change (UniProt P0A7Z4+P0A8V2+Q2NZX9+P0A800+P00579). Nature of the series: EMSA. Particulars: scale: % decrease of sigma70-32P in RPo band vs no P7.
Series [2] addresses λCI-β’ NTD (Xo β’ residues 1–10 fused to the λ CI protein). The experiment in a line: bacterial two-hybrid (BTH) interaction assay, β-galactosidase read-out. Particulars: parent: est. 11000; read off a plot.
Series [3] has as its target α-P7 fusion protein (P7 fused to the α-NTD), wild type. Described as above. As to conditions: read off a plot.

In turn, “GTTAGCTCACTCATTAGGCACCCCAGGCTTTACACTTTATGCTTCCGGCTCGTATAATGTGTGGAATTGTGAGCGGATAACAATTTCACACAGGAAACAG (double strand) [lacUV5 promoter [-64 to +36]]” yielded a binding signal in series [1] of 50.

Turning to “α-P7 fusion protein (P7 fused to the α-NTD), wild type F50A”, in series [2], the response turned out to be 1300 Miller units.

Turning to “α-P7 fusion protein (P7 fused to the α-NTD), wild type L67A”, the response in series [2] amounted to 8200 Miller units.

For “α-P7 fusion protein (P7 fused to the α-NTD), wild type V51A”, the response in series [2] was determined as 900 Miller units.

For the substance “λCI-Ec β flap domain (aa residues 831–1057) (from UniProt P0A8V2) I905A”, the response in series [3] (20 µM IPTG, parent: est. 460) was determined as 250 Miller units; in series [3] (50 µM IPTG, parent: est. 490), 260 Miller units; in series [3] (100 µM IPTG, parent: est. 520), 270 Miller units.

For “λCI-Ec β flap domain (aa residues 831–1057) (from UniProt P0A8V2) L901A”, the response was determined as 280 Miller units in series [3] (20 µM IPTG, parent: est. 460); 300 Miller units in series [3] (50 µM IPTG, parent: est. 490); 320 Miller units in series [3] (100 µM IPTG, parent: est. 520).
